From patent US20040185071A1, “Oil-based compositon comprising sterols” (priority 2001, published 2004)

Test: Evaluation of the solubility of sterols (Generol, a phytosterol) in various oils, visual after 24 hours
Assay type: physicochemical
Conditions: visual evaluation after 24 hours

Solubility Generol ® 1% (1% by weight Generol dissolved in the glycerol fatty acid ester): Good | Solubility Generol ® 3% (3% by weight Generol dissolved in the glycerol fatty acid ester): Good | Solubility Generol ® 5% (5% by weight Generol dissolved in the glycerol fatty acid ester): Good | Solubility Generol ® 7% (7% by weight Generol dissolved in the glycerol fatty acid ester): Good
Substance: Glycerol monocapric acid ester
